Here are results for one molecule from patent US8153803B2, “Compositions and methods for modulating sirtuin activity” (The General Hospital Corporation, priority 2006, dated 2012).

The target in experiment [1] is T1, SIRT2 (Homo sapiens, UniProt Q8IXJ6).
T1 sequence (Q8IXJ6 1-389): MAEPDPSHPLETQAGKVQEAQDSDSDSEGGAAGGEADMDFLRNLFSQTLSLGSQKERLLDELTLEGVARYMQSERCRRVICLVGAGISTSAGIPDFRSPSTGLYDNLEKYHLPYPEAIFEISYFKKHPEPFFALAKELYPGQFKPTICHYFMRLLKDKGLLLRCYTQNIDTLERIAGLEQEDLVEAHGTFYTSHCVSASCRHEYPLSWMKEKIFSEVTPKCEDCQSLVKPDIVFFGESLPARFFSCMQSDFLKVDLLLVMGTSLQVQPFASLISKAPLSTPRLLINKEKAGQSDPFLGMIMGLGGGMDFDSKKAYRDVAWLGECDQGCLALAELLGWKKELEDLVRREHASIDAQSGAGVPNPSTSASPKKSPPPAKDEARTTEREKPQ
The conditions noted are these: tubulin heterodimers from bovine brain, 2 hours; compared with inactive compound control and SIRTINOL

Experiment [2] concerns the target T1, SIRT2. To be noted: myc-tagged SIRT2 expressed in HeLa cells.
Experiment [3] concerns the target SIRT2 (Homo sapiens, UniProt Q8IXJ6).
Experiment [4] concerns the target T1, SIRT2. The experiment can be described thus: Fluorescent SIRT enzyme assay (recombinant enzyme, fluorescent peptide substrate). Format: biochemical. Also on record: purchased Biomol (Plymouth Meeting, Pa.). The conditions noted are these: SIRT2 IC50 compared with B2.

Turning to `N#C/C(=C\c1ccc(-c2cc(Cl)ccc2Cl)o1)C(=O)Nc1cccc2ncccc12` [AGK2], the acetylated tubulin level entry at SIRT2 [1] is listed as “increase in acetylated tubulin”. Also, on SIRT2 [2], the “inhibition of immunoprecipitated SIRT2” value is “able to inhibit SIRT2”. In addition, on SIRT2 [3], the “competition with protein substrates” value was “no competition” and the “competition with the co-factor NAD+” value is “weakly competed”. For the same molecule, on SIRT2 [4], the “increase in potency of AGK2 over B2” value was found to be 10 fold.
